Binding of CDR-mutated scFvs to a peptide of the spike HR2 region

The measurements come from Li et al. 2023 (doi:10.1038/s41467-023-39022-2) through the FLAb antibody collection.

The target is the same throughout: PDVDLGDISGINAS, from the HR2 region of SARS-CoV-2 spike.

Ab-14 is the parent antibody, in scFv form: VH, then three GGGGS repeats, then VL. The light chain is unchanged in all variants.
VH: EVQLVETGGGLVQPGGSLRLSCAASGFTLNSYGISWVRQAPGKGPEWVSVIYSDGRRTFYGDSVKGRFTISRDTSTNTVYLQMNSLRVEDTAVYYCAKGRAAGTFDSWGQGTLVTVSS
VL: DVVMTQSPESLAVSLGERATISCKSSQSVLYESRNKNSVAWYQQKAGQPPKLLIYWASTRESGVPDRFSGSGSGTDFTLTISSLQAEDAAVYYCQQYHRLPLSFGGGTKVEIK

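The parent was found by panning a naive human phage display library on the peptide. Designed CDR sequences, proposed from the first random library and measured here. Group labels follow the data file (Ctrl: baseline library sampled from a position-specific scoring matrix, with some repeated check sequences; Rand: our label for a block that the file lists under HC and that is probably the random mutants of the ten best first-round binders; En: ensemble of fine-tuned language models; GP: Gaussian process model; GPLM: also part of the Gaussian process libraries; HC: hill climbing; Gen: genetic algorithm; Gibbs: Gibbs sampling; a sequence that several methods proposed may carry one label only). AlphaSeq pools MATa yeast showing the antibodies with MATalpha yeast showing the peptide. Binding brings cells together so that they mate, and sequencing counts the barcode pairs among the diploids. Read counts were normalised to the haploid input and turned into Kd by a linear fit to BCL2-family pairs of known affinity, for each replicate. Each pool was mated in six replicate cultures.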

Each variant is given by its three heavy chain CDRs, as the data file delimits them; those of the parent are GFTLNSYGIS, VIYSDGRRTFYGDSVK, GRAAGTFDS.
Each Kd is an estimate from the mating assay, the geometric mean of the replicates in which the pair was seen; lower is stronger.
Where no diploid with the target was found in any replicate, the entry reads "nd": below detection, most likely a poor binder, though not proof of it.
The parent sequence was in this pool as ten entries: three were never detected, three once, and four in most replicates, with averages from 2.2 nM to 240 nM.
A sequence measured in both rounds can read differently, since the two assays cover different ranges.
Nonspecific signal, from three strains lacking the peptide, appeared in 1% of pairings of all heavy chain designs, centred on 120 nM (5% of these signals below 7.0 nM); values are not corrected for it. For each scFv, signals with the empty controls are counted beside the result.
The authors averaged sequences with at least three values out of six and counted those with two or fewer as poor binders.

CDR-H1,CDR-H2,CDR-H3,group,apparent Kd,detected,control signals
GFDLNLYGIS,VIYSDGRRTFYDDSVK,GQTAGTFDS,GP_HC,970 pM,6/6,1/18
GFDLNEYGIS,VIYADGMRTHYTDSVK,GNTAGTFDS,En_HC,9.8 nM,5/6,0/18
GFTLNSYGIS,VIYSDGYRTFYTDSVK,GRAAGTFDS,Ctrl,4.6 nM,1/6,1/18
GFTLNSYGIS,VIYSDGRRTFYHDSVK,GQAAGTFES,Ctrl,nd,0/6,0/18
GFDLNEYGIS,VIYADGLRTSYTDSVK,GQLAGTFDQ,En_HC,320 pM,6/6,0/18
GFDLNEYGIS,VIYADGRRTAYADSVK,GNEAGTFDM,En_Gen,310 pM,6/6,0/18
GFDLNEYGIS,VIYADGKRTAYADSVK,GANAGTFDV,En_Gen,310 pM,6/6,0/18
GFDLDEYGIS,VIYADGRRTFYKDSVK,GSNAGTFDV,En_HC,1.0 nM,6/6,0/18
GFSLNSYGIS,VIYSDGRRTFYIDSVK,GSAAGTFDS,GPLM_Gen,3.5 nM,6/6,0/18
GETLNSYGIS,VIYADGRRTFYADSVK,GRAAGTFDS,GP_HC,240 pM,4/6,0/18
GFDLEEYGIS,VIYADGMRTAYADDVK,GENAGTFDV,En_Gen,870 pM,6/6,0/18
GFTLMSYGIS,VIYADGRRTFYGDSVK,GRAAGTFKS,GPLM_HC,nd,0/6,0/18
GFDLDEYGIS,VIYADGMRTAYADSVK,GNVAGTFDT,En_Gen,680 pM,6/6,0/18
GFTLNEYGIS,VIYSDGRRTFYKDDVK,GRTAGTFDS,GP_HC,1.2 nM,6/6,0/18
GFTLNDYGIS,VIYSCGRRKFYGDSVK,GMAAGTFDS,Ctrl,nd,0/6,0/18
GFFLNEYGIS,VIYSDGRRTFYGDSVK,GRAAGTFDQ,GP_HC,nd,0/6,0/18
GFDLNEYGIS,VIYADGMRTFYADSVK,GQLAGTFDE,En_HC,220 pM,6/6,0/18
GFSLNSYGIS,VIYSDGRRTAYGDHVK,GRAAGTFDS,GP_Gen,1.9 nM,6/6,1/18
KFDLNSYGIS,VIYSDGRRTFYGDSVK,GQTAGTFDD,GP_Gibbs,34 nM,5/6,0/18
GFDLNSYGIS,VIYSDGRRTFYGDSVK,GQAAGIFDS,GP_Gen,400 nM,1/6,0/18
GFDLEEMGVS,VIYHDGVRKAYKQKVK,GQTAGSFDV,En_Gibbs,nd,0/6,0/18
GFTLNSYGIS,VIYSDGRRTFYGDSVK,GKAADTFDS,Ctrl,nd,0/6,0/18
HFSLNSYGIS,VIYSDGRRTFYADSVK,GRTAGTFDS,GPLM_Gen,3.3 nM,6/6,0/18
GFDIDEMGIS,VIYADGQRKAYTENVK,GNSMGMTLA,En_Gibbs,nd,0/6,0/18
GFTLDSYGIS,VIYSDGRRTFYGDSVK,GRLAGTFDS,GPLM_Gen,13 nM,6/6,1/18
GFQLNSYGIS,VIYSDGRRTFYSDSVK,GKAAGTFDS,GPLM_Gibbs,4.2 nM,4/6,0/18
GFDLDEYGIS,VIYADGKRTAYADSVK,GNNAGTFDT,En_Gen,520 pM,6/6,0/18
GFQLNEYGIS,VIYSDGRRTFYGDSVK,GQAAGTFDA,GP_Gibbs,9.4 nM,6/6,0/18
GFTLNSYGIS,VIYSDGWRTFYSDSVK,GKAAGTFDS,GPLM_Gen,74 nM,5/6,1/18
GFSLNSYGIS,VIYSDGRRTFYDDSVK,GKAAGTFDS,GPLM_Gen,1.4 nM,6/6,0/18
GFNLNEYGIS,VIYADGRRTFYSNSVK,GEHAGTFDV,En_HC,410 pM,6/6,0/18
GFDLNEYGIS,VIYADGMRTAYADNVK,GQTAGTFDV,En_Gen,8.9 nM,5/6,0/18
GFDLNEYGIS,VIYADGRRTFYTDSVK,GTTAGTFDV,En_HC,850 pM,6/6,0/18
GFDLDEYGIS,VIYADGMRTVYTDSVK,GNVAGTFDV,En_Gen,370 pM,6/6,0/18
GFDLNEYGIS,VIYADGSRKAYADDVK,GNVAGTFDV,En_Gen,380 pM,6/6,0/18
GFTLNEYGIS,VIYSDGRRTFYGDSVK,GRLAGTMDQ,Ctrl,nd,0/6,0/18
GFDLNEYGVS,VIYADGMRSSYQDKVK,GSNGSLFDV,En_Gibbs,nd,0/6,0/18
PFDLNSYGIS,VIYSDGRRTFYGDSVK,GREAGTFDS,GP_Gen,nd,0/6,0/18
GFSLNEYGIS,VIYSDGRRTFYGDSVK,GWAAGTFDN,GP_Gibbs,14 nM,6/6,0/18
GFTLNQYGIS,VIYSDGRRTFYGDSVK,GEAAGTFDK,GP_HC,nd,0/6,0/18
GGDLNEYGIS,VIYADGVRKNYIDSVK,GQTGIVLNI,En_Gibbs,nd,0/6,0/18
GFNISEYGIS,VIYADGRRTSYKNTVK,GNLTWLFDV,En_Gibbs,nd,0/6,0/18
GFSLNSYGIS,VIYSDGRRTFYTDSVK,GQTAGTFDS,GPLM_Gen,1.9 nM,6/6,0/18
GFELNSYGIS,VIYSDGRRTFYGDPVK,GRTAGTFDS,GP_Gen,120 nM,4/6,0/18
GFTLNSYGIS,VIYSDGRRTFYTDSVK,GMAAGTFDS,GP_HC,4.3 nM,1/6,0/18
GFDIEEYGIS,VIYADGSRTEYSDSVK,SGYTFNMDL,En_Gibbs,nd,0/6,1/18
GFNLNEYGIS,VIYSDGRRTFYTDSVK,GREAGTFDS,GPLM_HC,4.0 nM,6/6,0/18
GFSLNEYGIS,VIYSDGRRTFYTDSVK,GRTAGTFDS,GPLM_Gen,810 pM,6/6,0/18
GFTLNDQGIS,VIYSDGRRTFYGDNVK,GRAAGTFDS,Ctrl,nd,0/6,0/18
GFDLNEYGIS,VIYADGRRTFYADSVK,GNVAGTFFT,En_HC,34 nM,6/6,0/18
GFDLNEYGIS,VIYADGKRTAYADSVK,GNAAGTFDV,En_Gen,620 pM,6/6,0/18
GFSLNEYGIS,VIYSDGRRTFYGDSVK,GRAAGTFDK,GPLM_Gen,16 nM,6/6,0/18
GFNLNSYGIS,VIYSDGRRTFYMDSVK,GRVAGTFDS,Ctrl,18 nM,2/6,0/18
GFTLNEYGIS,VIYSDGRRTFYGDSVK,GLMAGTFDS,Ctrl,3.6 nM,6/6,0/18
GFTLNEYGIS,VIYSDGQRTAYSDSVK,GRAAGTFDY,Ctrl,1.8 nM,6/6,0/18
GFTLNEYGIS,VIYSDGRRTFYADAVK,GRCAGTFDS,GP_HC,16 nM,1/6,0/18
GFTLNSYGIS,VILSDGRRTFYGDSVK,GQLAGTFDS,Rand,nd,0/6,1/18
GFDLNSYGIS,VIYSDGRRWFYGDSVK,GRTAGTFDS,GP_Gen,71 nM,6/6,0/18
GFTLNEYGIS,VIYSDGRRTFYGDLVK,GRAAVMFDQ,Rand,nd,0/6,0/18
GMTLNKYGIS,VIYSDGRRTFYGDSVK,VRAALTFIS,Rand,nd,0/6,1/18
GFPLNSYGIS,VIYADGRRTFYGDSVK,GAAKGTNDS,Ctrl,7.4 nM,6/6,0/18
GADLNEYGIS,VIYADGDRKAFQNDVK,GTNAGDFDI,En_Gibbs,nd,0/6,0/18
GFDLDEYGIS,VIYADGIRSQYHDSVK,GTGGFDIEL,En_Gibbs,15 µM,1/6,1/18
GFDLNSYGIS,VIYADGRRTFYGDSVK,GRAAGTNYS,Rand,nd,0/6,0/18
GFTNNSYGIS,VIYSDGRRTFYLDSVK,GRFAGTFDS,Ctrl,nd,0/6,0/18
GFNLNEYGIS,VIYADGRRTFYSDSVK,GEAAGTFDL,En_HC,1.1 nM,6/6,0/18
GFDLNEYGIS,VIYADGRRTAYADSVK,GENAGTFDT,En_Gen,460 pM,6/6,0/18

Excerpt, the final 11 entries:

CDR-H1,CDR-H2,CDR-H3,group,apparent Kd,detected,control signals
GFTLNSYGIS,VILSDGRRTFYGDSVK,GQLAGTFDS,Rand,nd,0/6,1/18
GFDLNSYGIS,VIYSDGRRWFYGDSVK,GRTAGTFDS,GP_Gen,71 nM,6/6,0/18
GFTLNEYGIS,VIYSDGRRTFYGDLVK,GRAAVMFDQ,Rand,nd,0/6,0/18
GMTLNKYGIS,VIYSDGRRTFYGDSVK,VRAALTFIS,Rand,nd,0/6,1/18
GFPLNSYGIS,VIYADGRRTFYGDSVK,GAAKGTNDS,Ctrl,7.4 nM,6/6,0/18
GADLNEYGIS,VIYADGDRKAFQNDVK,GTNAGDFDI,En_Gibbs,nd,0/6,0/18
GFDLDEYGIS,VIYADGIRSQYHDSVK,GTGGFDIEL,En_Gibbs,15 µM,1/6,1/18
GFDLNSYGIS,VIYADGRRTFYGDSVK,GRAAGTNYS,Rand,nd,0/6,0/18
GFTNNSYGIS,VIYSDGRRTFYLDSVK,GRFAGTFDS,Ctrl,nd,0/6,0/18
GFNLNEYGIS,VIYADGRRTFYSDSVK,GEAAGTFDL,En_HC,1.1 nM,6/6,0/18
GFDLNEYGIS,VIYADGRRTAYADSVK,GENAGTFDT,En_Gen,460 pM,6/6,0/18